Experimental data published in the OPERA property sets (Mansouri et al. 2018).

Cc1c([N+](=O)[O-])no[n+]1[O-]
logP: 0.78
